The values that follow are results of earlier work, collected in patent US20010046957A1, “Method for treating hepatitis C” (priority 1999, published 2001).

The data set has as its system HCV.

Take PEG IFN-α2A conjugate: the sustained virological response (CHC patients with cirrhosis, phase III study (Heathcote J)) is 29%. Further, the “sustained reduction of the virus to undetectable levels” value (non cirrhotic patients with CHC, phase II study (Shiffman M)) was 36%.
